Data as given in patent publication US20140127136A1, “LIPOSOMES USEFUL FOR DRUG DELIVERY TO THE BRAIN” (Merrimack Pharmaceuticals, Inc., priority 2004, published 2014).
Where a name gives a salt, the structure may show the parent alone.

Assay: In vivo chemical stability and blood pharmacokinetics of free or liposomal CPT-11
Settings: rats, 25 mg/kg i.v.

Compound: CCc1c2c(nc3ccc(OC(=O)N4CCC(N5CCCCC5)CC4)cc13)-c1cc3c(c(=O)n1C2)COC(=O)[C@]3(O)CC [free CPT-11, Irinotecan hydrochloride]
- conversion to SN-38 or the carboxylate form of CPT-11 in vivo: appreciable conversion to the carboxylate form of the drug
